{"source": "PubChem BioAssay AID504490", "about": "(NMMLSC, 2011)", "note": "This is a selection; strong and weak results do not stand in their true shares. Some of these compounds have results that are not shown, active ones among them. Active and inactive are the calls of the source.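 Rule for the calls: active = inhibition above a set limit, near 3 SD of compounds lacking own fluorescence (cut at about 54% in these data); inactive = the rest.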", "data": [{"tested_on": "beta-arrestin 1 C-terminal peptide binding to AP2 beta2-adaptin appendage (human)", "assay": "blockers of arrestin peptide association with AP2 adaptin – biochemical, GPCR trafficking, flow cytometry, primary screen (AID 504490);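 note: plate controls were DMSO wells for no effect and 5 µM unlabelled arrestin peptide for full effect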", "details": "FITC-arrestin peptide / GST-AP2 beads, at 10 µM, hits give high values, AP2 beta2 appendage carries R879A mutation", "values": [{"smiles": "Cc1ccccc1C(=O)NCC1(N2CCCCC2)CCCCC1", "inhibition": "inactive: -2.78%"}, {"smiles": "CN(C)C1CCCC1OC(=O)C(O)(c1ccccc1)c1ccccc1", "note": "(stereo not given)", "inhibition": "inactive: 4.56%"}, {"smiles": "CN(C)c1ccc(C(=O)NCC2(N(C)C)CCCCC2)cc1", "inhibition": "inactive: 26.6%"}, {"smiles": "C=CCN1CCN(CCOC(=O)C(O)(c2ccccc2)c2ccccc2)CC1", "inhibition": "inactive: -7.46%"}, {"smiles": "O=C(NCC1(N2CCCCC2)CCCCC1)c1cc(F)c(F)cc1Cl", "inhibition": "inactive: -7.76%"}, {"smiles": "Cc1cc(C(=O)NCC2(N3CCCCC3)CCCCC2)ccc1[N+](=O)[O-]", "inhibition": "inactive: -8.54%"}, {"smiles": "CCN1CCCC(OC(=O)C2(O)c3ccccc3C=Cc3ccccc32)C1", "note": "(stereo not given)", "inhibition": "inactive: -4.2%"}, {"smiles": "O=C(NCC1(N2CCCCC2)CCCCC1)c1cccc(Br)c1", "inhibition": "inactive: 12.8%"}, {"smiles": "COc1ccc(C(=O)NCC2(N(C)C)CCCCC2)cc1", "inhibition": "inactive: -6.4%"}, {"smiles": "O=C(NCC1(N2CCCCC2)CCCCC1)c1cc([N+](=O)[O-])ccc1Cl", "inhibition": "inactive: -11.1%"}, {"smiles": "CN1[C@@H]2CC[C@H]1CC(OC(=O)C(O)(c1ccccc1)c1ccccc1)C2", "note": "(stereo not given in full)", "inhibition": "inactive: -2.4%"}, {"smiles": "CC(C)N1C(=O)CC2(CCN(CCOC(=O)C(O)(c3ccccc3)c3ccccc3)CC2)C1=O", "inhibition": "inactive: -8.49%"}, {"smiles": "CCN(CC)CC(C)C(C)OC(=O)C(O)(c1ccccc1)c1ccccc1", "note": "(stereo not given)", "inhibition": "inactive: 24.5%"}, {"smiles": "COc1cc(SC)ccc1C(=O)NCC1(N(C)C)CCCCC1", "inhibition": "inactive: 25.9%"}, {"smiles": "Cc1ccc(C(=O)NCC2(N3CCCCC3)CCCCC2)cc1", "inhibition": "inactive: -5.84%"}, {"smiles": "O=C(OC1CN2CCC1CC2)C(CO)(c1ccccc1)c1ccccc1", "note": "(stereo not given)", "inhibition": "inactive: -123%"}, {"smiles": "COc1ccc(Br)c(C(=O)NCC2(N3CCCCC3)CCCCC2)c1", "inhibition": "inactive: 13%"}, {"smiles": "CN(C)c1cccc(C(=O)NCC2(N(C)C)CCCCC2)c1", "inhibition": "inactive: 17.4%"}, {"smiles": "CC(C)Oc1ccc(C(=O)NCC2(N(C)C)CCCCC2)cc1", "inhibition": "inactive: 33.1%"}, {"smiles": "O=C(OCCN1CCCC1)C(O)(c1ccccc1)c1ccccc1", "inhibition": "inactive: 9.83%"}, {"smiles": "CN(C)C1(CNC(=O)c2ccc(Br)cc2)CCCCC1", "inhibition": "inactive: -2.4%"}, {"smiles": "COc1cc(C(=O)NCC2(N(C)C)CCCCC2)c([N+](=O)[O-])cc1OC", "inhibition": "inactive: -7.99%"}, {"smiles": "COc1cccc(C(=O)NCC2(N3CCCCC3)CCCCC2)c1", "inhibition": "inactive: -14.1%"}, {"smiles": "COc1ccc(Cl)cc1C(=O)NCC1(N(C)C)CCCCC1", "inhibition": "inactive: 6.28%"}, {"smiles": "O=C(NCC1(N2CCCCC2)CCCCC1)c1cccc(Cl)c1", "inhibition": "inactive: 10.8%"}]}]}
